Among the data in US20240058466A1 are EC50 (read off the curve) values, retold here.

The target of the assay is recombinant human soluble ECD of CD64/FCGRIA (human) (UniProt P12314). Nature of the assay: ELISA: plate coated with recombinant human CD64/FcγRI ECD, antibody titrated, goat anti-human Fc-HRP, OD650.

Regarding “Anti-EGFR Mab No. 2, L234A, L235A (antibody; other documents disagree on this pair)”, the EC50 (read off the curve) came out at 4 µg/mL.
As for “Anti-EGFR Mab No. 2, wild-type (antibody; other documents disagree on this pair)”, the figure is 0.04 µg/mL.
